One compound from ChEMBL document CHEMBL3832547, “Goodman and Gilman Ed. 12 | The Pharmaceutical Basis of Therapeutics| Table AII-I: Pharmacokinetic Data” (2011) can be followed below.

The series in a line: Pharmacokinetic parameters for Letrozole evaluated following single oral administration of Letrozole tablets. The series is classed as ADME, organism-based. Further details: dose 2.5 mg, route oral. The note with it: human, in vivo, 2.5 mg, dosed compound id 15, dosed compound name LETROZOLE, gender female, regimen Single dose, tissue Plasma.

A word on the half-life: it is how long it takes for the measured level to halve. Lower therefore signals rapid decline. Regarding `N#Cc1ccc(C(c2ccc(C#N)cc2)n2cncn2)cc1` [LETROZOLE], the half-life is 45 h.
